Inhibition data for two compounds are collected here from ChEMBL document CHEMBL4130443, “Targeting breast cancer stem cells by novel HDAC3-selective inhibitors” (Eur J Med Chem, 2017).

The subject of test [1] is MDA-MB-231. Kind of test: Inhibition of mammosphere formation of human MDA-MB-231 cells incubated for 7 days. It is filed as functional, cell-based.
Test [2] relates to MDA-MB-231. The test is described as follows: Inhibition of colony formation of human MDA-MB-231 cells incubated for 48 hrs by crystal violet staining based assay. It is filed as functional, cell-based.

In the case of `CC(C)(C(=O)Nc1ccc(C(=O)Nc2ccc(F)cc2N)cc1)c1ccccc1`, the inhibition result in test [1] and in test [2] was “Dose-dependent effect” throughout.
On to `Nc1cc(F)ccc1NC(=O)c1ccc(NC(=O)Cc2ccccc2)cc1`, for which the inhibition entry in test [1] and in test [2] was “Dose-dependent effect” throughout.
